# Experimental data as given in patent US7501430B2 (ArQule, Inc., priority 2006, dated 2009).
# Sequences of proteins named here, by UniProt entry; tags and fusion partners are left off.
# UniProt P15056, whole entry V600E: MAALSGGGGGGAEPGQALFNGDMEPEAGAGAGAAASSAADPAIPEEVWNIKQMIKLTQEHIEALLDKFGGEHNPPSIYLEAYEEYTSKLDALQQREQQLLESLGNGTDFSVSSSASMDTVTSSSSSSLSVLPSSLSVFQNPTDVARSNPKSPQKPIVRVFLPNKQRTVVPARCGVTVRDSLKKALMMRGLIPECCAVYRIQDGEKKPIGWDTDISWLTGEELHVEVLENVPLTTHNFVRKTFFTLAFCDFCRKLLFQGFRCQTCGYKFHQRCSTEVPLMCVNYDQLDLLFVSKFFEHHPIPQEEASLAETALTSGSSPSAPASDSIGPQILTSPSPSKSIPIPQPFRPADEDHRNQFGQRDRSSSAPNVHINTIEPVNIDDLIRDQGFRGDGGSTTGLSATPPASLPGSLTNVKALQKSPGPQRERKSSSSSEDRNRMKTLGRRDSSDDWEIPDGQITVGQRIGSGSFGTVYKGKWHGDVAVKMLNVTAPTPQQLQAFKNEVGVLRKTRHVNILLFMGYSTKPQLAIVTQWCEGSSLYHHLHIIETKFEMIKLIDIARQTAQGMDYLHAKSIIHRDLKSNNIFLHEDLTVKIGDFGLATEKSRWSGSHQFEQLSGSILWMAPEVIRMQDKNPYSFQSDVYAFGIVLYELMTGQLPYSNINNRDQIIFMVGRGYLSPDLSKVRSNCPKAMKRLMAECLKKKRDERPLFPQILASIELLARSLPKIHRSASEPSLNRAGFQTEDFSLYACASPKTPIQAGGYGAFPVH
# Biological target: mutant B-RAF (Homo sapiens, UniProt P15056, V600E)
# Test: RAF biochemical assay (MEK-1 phosphorylation, anti-phospho MEK1/2 detection)
# Settings: read-out: Mutant B-RAF IC50
smiles,measurement,value
O=C(O)c1ccc(S(=O)(=O)N2CCC[C@@H](Nc3nccc(-c4c(-c5cccc(O)c5)nc5sccn45)n3)C2)cc1,IC50,2 nM
